This is an account of results in PMC7902338 (Pharmaceutical Research, 2021).

The conditions of series [1]: mean ± SD.
Series [2] has as its system cation transporters (OCTs, MATEs). To be noted: C57BL/6 wild-type mice, assuming average mouse organ volumes from literature.
The conditions of series [3]: single oral or intravenous dose; cited from earlier work.
For series [4], the system named is murine P-glycoprotein (P-gp/ABCB1). To be noted: cited from earlier work.
The subject of series [5] is human OCT2. To be noted: cited from earlier work.
Setting [6] is: C57BL/6 female mice, co-administration of unlabeled metoclopramide (5 mg/kg), 15 min.

Like-named read-outs stand apart in the source and are kept apart here.

Turning to `CCN(CC)CCNC(=O)c1cc(Cl)c(N)cc1O[11CH3]` [[^11C]metoclopramide], the “Percentage of unchanged [^11C]metoclopramide in liver” value in series [1] (C57BL/6 female mice, baseline, 15 min after radiotracer injection) turned out to be 57 ± 4%; in series [1] (C57BL/6 female mice, cimetidine (150 mg/kg), 15 min) it was 96 ± 2 %; in series [1] (setting [6]), 76 ± 4%; in series [1] (C57BL/6 female mice, sulpiride (25 mg/kg), 15 min), 76 ± 7%; in series [1] (FVB male/female Slc22a1/2^(−/−) mice, 15 min), 74 ± 9%; in series [1] (FVB male/female wild-type mice, 15 min) it was 69 ± 6%. Also, the “Percentage of unchanged [^11C]metoclopramide in urine” value in series [1] (setting [6]) turned out to be 43 ± 7%. The “Maximum amount of radioactivity in the liver” value in series [2] is listed as ~36 % of the injected dose.
Turning to `CCN(CC)CCNC(=O)c1cc(Cl)c(N)cc1OC` [metoclopramide], the “Fraction of dose excreted in urine in the form of metabolites” value in series [3] is “up to 60%”. Besides, in series [4], the “Substrate of murine P-gp” value is “weak substrate”. Moreover, the “Share of cellular uptake related to OCT2 activity” value in series [5] (human OCT2 transfected cell line) was 24%. Besides, the “Substrate of human OCT2” value in series [5] (in vitro) is “substrate”.
